IC50 data for one compound are collected here from ChEMBL document CHEMBL1126803, “Stereospecific and selective 5-HT2 antagonism in a series of 5-substituted trans-1-piperazino-3-phenylindans” (J Med Chem, 1993).

The chains behind the UniProt entries cited, without tags or fusion partners.
UniProt P61169, whole entry: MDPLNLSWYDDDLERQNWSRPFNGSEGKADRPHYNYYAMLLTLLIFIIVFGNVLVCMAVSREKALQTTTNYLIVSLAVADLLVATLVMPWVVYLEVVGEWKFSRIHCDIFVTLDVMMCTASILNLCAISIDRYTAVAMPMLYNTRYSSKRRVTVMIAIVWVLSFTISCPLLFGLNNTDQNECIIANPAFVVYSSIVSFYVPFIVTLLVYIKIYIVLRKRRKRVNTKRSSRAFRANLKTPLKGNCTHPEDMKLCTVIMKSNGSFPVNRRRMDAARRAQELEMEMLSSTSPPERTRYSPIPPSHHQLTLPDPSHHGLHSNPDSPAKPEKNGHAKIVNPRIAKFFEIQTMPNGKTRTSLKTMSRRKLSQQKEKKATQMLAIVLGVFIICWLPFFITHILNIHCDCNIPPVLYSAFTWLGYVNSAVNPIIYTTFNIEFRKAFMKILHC

Each structure is given as a SMILES string.

The assay addresses D(2) dopamine receptor (Rattus norvegicus, UniProt P61169). Kind of assay: Displacement of [3H]spiperone from dopamine D2 receptors in rat striatal membranes. Type of assay: cell membranes, Membrane. The method in brief: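 Radioligand displacement from rat brain membranes: 3H-ketanserin on cortical membranes (5-HT2), 3H-prazosin on whole brain membranes (alpha1), 3H-spiperone on striatal membranes (D2). Two full concentration-effect curves per compound, each with five test drug concentrations in triplicate spanning three decades. IC50 estimated from curves on a log-concentration scale. Outliers beyond 3 times the sd-ratio were discarded after extra determinations.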

One may read the IC50 as the concentration that inhibits the measured activity by half. Lower therefore signals higher potency. Consider `O=C1NCCN1CCN1CCN(C2CC(c3ccc(F)cc3)c3cc(Cl)ccc32)CC1` (stereo unspecified), for which the IC50 worked out at 0.36 µM. In other words, the sub-micromolar range.
